Earlier results as cited in patent US11319289B2, “5-hydroxy pyridine-based compound for use as P2X1 and P2X3 receptor antagonist and pharmaceutical composition comprising same” (GWANGJU INSTITUTE OF SCIENCE AND TECHNOLOGY, priority 2017, dated 2022).

Chains of the proteins cited; added tags and fusions are not shown.
UniProt P56373, whole entry: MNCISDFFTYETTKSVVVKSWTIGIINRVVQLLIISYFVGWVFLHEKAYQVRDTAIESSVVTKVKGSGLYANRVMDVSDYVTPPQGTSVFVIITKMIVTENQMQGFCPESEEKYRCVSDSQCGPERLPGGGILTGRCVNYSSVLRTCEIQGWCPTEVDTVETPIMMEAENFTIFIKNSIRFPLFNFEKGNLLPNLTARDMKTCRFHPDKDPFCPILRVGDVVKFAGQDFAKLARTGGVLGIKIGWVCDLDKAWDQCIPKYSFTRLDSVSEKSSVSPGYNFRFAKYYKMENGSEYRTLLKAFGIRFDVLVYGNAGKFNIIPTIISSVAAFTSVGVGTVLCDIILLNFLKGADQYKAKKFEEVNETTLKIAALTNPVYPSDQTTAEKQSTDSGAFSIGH

Biological target: hP2X3 receptor (Homo sapiens, UniProt P56373)
Settings: read-out: IC50 for hP2X3 receptor, previously reported; reported by the present inventors in previous studies; cited from earlier work

Cc1nc(Cc2cccc(Oc3ccccc3)c2)c(C=CC(=O)O)c(C=O)c1O
IC50: 60 nM
